Experimental data as given in ChEMBL document CHEMBL1629461, “The novel benzopyran class of selective cyclooxygenase-2 inhibitors. Part 2: the second clinical candidate having a shorter and favorable human half-life” (Bioorg Med Chem Lett, 2010).
pIC50: −log10 of the molar value.

Amino acid sequences for entries named in this document (tags omitted).
UniProt P23219, whole entry: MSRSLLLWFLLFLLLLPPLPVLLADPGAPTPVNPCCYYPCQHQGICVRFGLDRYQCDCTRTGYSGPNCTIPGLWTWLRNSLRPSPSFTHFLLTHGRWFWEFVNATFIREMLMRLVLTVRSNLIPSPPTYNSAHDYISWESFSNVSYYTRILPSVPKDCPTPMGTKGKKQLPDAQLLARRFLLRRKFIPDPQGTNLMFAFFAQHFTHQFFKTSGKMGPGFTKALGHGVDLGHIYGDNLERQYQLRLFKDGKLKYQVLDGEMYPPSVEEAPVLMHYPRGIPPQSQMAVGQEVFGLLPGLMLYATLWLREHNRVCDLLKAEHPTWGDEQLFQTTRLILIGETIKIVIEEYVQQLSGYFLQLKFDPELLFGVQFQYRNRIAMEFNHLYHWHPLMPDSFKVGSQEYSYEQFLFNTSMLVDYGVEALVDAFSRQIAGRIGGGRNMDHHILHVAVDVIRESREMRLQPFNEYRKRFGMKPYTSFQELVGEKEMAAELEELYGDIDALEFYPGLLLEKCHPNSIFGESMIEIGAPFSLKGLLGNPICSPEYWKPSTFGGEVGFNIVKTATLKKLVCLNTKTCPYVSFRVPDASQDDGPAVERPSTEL

Target: Prostaglandin G/H synthase 1 (Homo sapiens, UniProt P23219)

pIC50: > 6.85
Compound: CCC(CC)COc1c(Cl)cc2c(c1Cl)OC(C(F)(F)F)C(C(=O)O)=C2 (stereo unspecified)
